T1: trypsin-like site (β2 subunit) of 26S proteasomes purified from rabbit muscle (rabbit, UniProt G1SWK8 44-271)
T1 sequence: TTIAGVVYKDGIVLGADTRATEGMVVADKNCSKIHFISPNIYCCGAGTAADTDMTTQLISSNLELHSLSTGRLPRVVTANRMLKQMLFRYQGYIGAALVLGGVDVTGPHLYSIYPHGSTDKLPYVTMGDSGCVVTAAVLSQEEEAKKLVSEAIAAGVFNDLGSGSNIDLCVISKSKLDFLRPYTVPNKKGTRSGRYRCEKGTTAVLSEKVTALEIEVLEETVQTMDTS

T2: proteasome β2 subunit (trypsin-like site) in human cells and cell extracts (human, UniProt Q99436 44-277)
T2 sequence (looked up): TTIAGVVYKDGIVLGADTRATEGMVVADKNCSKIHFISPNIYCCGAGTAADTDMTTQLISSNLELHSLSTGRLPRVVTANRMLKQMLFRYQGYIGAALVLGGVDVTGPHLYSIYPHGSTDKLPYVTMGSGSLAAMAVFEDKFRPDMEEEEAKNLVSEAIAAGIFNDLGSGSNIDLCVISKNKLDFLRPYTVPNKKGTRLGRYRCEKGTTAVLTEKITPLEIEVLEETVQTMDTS


Columns and labels:
[1] = target: T1, trypsin-like site (β2 subunit) of 26S …; assay: cell-based or functional assay
[2] = target: T2, proteasome β2 subunit (trypsin-like …); assay: cell-based or functional assay

Row | Binder | IC50 (µM) for sites in 26S proteasomes: Tr-L [1] [µM] | IC50 (µM) for sites: Tr-L; NCI-H929 cells, 6 h, PROTEASOMEGLO [2] [µM]
1 | FLLF (N-terminal azido-phenylalanine (N3-Phe); P1 residue is Phe(4-NH2) with a vinyl sulfone (VS) warhead) [N3-Phe-Leu-Leu-Phe(4-NH2)-VS (45a)] | 0.11 | 
2 | FALF (N-terminal azido-phenylalanine (N3-Phe); P3 residue is Ala(4-pyridine); P1 residue is Phe(4-CH2NH2) with a vinyl sulfone (VS) warhead) [N3-Phe-Ala(4-pyridine)-Leu-Phe(4-CH2NH2-TFA)-VS (50)] |  | 0.27

Source: US20130102527A1 (TRUSTEES OF DARTMOUTH COLLEGE, published 2013)
